Patent US20060204502A1 (priority 2004, published 2006)

By UniProt entry, the sequences of proteins in these tests, tags left out.
UniProt P0DMS8, whole entry: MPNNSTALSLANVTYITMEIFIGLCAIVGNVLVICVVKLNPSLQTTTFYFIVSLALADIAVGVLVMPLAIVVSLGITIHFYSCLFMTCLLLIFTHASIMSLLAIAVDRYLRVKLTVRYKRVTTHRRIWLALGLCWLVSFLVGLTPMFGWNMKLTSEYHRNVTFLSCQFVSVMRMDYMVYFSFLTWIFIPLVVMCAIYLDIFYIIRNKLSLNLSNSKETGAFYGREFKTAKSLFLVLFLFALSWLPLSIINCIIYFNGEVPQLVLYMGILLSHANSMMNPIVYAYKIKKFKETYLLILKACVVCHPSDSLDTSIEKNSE

Legend:
[1] = target: T1, human cloned A3 Adenosine Receptor (Homo sapiens, UniProt P0DMS8); assay: Human cloned A3 adenosine receptor binding, [125I]AB-MECA, HEK-293 membranes; conditions: ratio of Ki values
T1 construct: purchased Research Biochemical International, Natick, Mass., USA; host or cells: HEK-293 cells (transfected), membranes

A375 cells = assay: Flow cytometry cell cycle (G2/M) and apoptosis (sub-G1) analysis, A375; assay type: cell-based, human; conditions: antagonist 10 μM
Procedure: Flow Cytometry Analysis: A375 and NCTC2544 adherent cells were trypsinized, mixed with floating cells, washed with PBS and permeabilised in 70% (vol/vol) ethanol/PBS solution at 4° C. for at least 24 hours. Jurkat, HeL023 and PBMC cells were centrifuged for 10 minutes at 1000×g. The cell pellet was then resuspended and permeabllised in 70% (vol/vol) ethanol/PBS solution at 4° C. for at least 24 hours. The cells were washed with PBS and the DNA was stained with a PBS solution, containing 20 μg/ml of propidium iodide and 100 μg/ml of RNAse, at room temperature for 30 minutes. Cells were analysed by FACScan (Becton-Dickinson) and the content of DNA was evaluated by the Cell-LISYS program (Becton-Dickinson). Cell distribution among cell cycle phases and apoptotic cells was evaluated as previously described (Secchiero et al., 2001). Briefly, the cell cycle distribution is shown as the percentage of cells containing 2n (G1 phase), 4n (G2 and M phases), 4n>x>2n. DNA amount (S phase) judged by propidium iodide staining. The apoptotic population is the percentage of cells with DNA content lower than 2n.
After 24 hours, cells were collected for flow cytometry analysis. PD 98059 was used at 20 uM as an inhibitor of MEK to prevent MEK-1 activation. […]
EC50 values were obtained by analysing G2/M accumulation dose response curve. ECMAX values were obtained by analysing sub-G1 accumulation dose response curve. Paclitaxel values have units of ng/ml.

CN(C)c1ccc(NC(=O)Nc2nc3nn(C)cc3c3nc(-c4ccco4)nn23)cc1 [IL-11, N-1-(4-dimethylamino-phenyl)-N′-5-[8-methyl-2-(2-furyl)-pyrazolo[4,3-e]1,2,4-triazolo[1,5-c]pyrimidine]-urea]
rA1/hA3 [1]: >6700
rA2A/hA3 [1]: >6700

CCCn1cc2c(nc(NC(=O)Nc3ccc(OC)cc3)n3nc(-c4ccco4)nc23)n1 [MRE3008F20, 5-[[(4-Methoxyphenyl)amino]carbonyl]amino-8-propyl-2-(2-furyl)-pyrazolo[4,3-e]1,2,4-triazolo[1,5-c]pyrimidine]
fold reduction of paclitaxel EC50 (G2/M accumulation) (A375 cells): 1.9 fold
fold reduction of paclitaxel ECMAX (apoptosis) (A375 cells): 2.0 fold
fold reduction of vindesine EC50 (G2/M accumulation) (A375 cells): 4.0 fold
fold reduction of vindesine ECMAX (apoptosis) (A375 cells): 2.1 fold
rA1/hA3 [1]: >34,482
rA2A/hA3 [1]: 6,872

CCN(CC)c1ccc(NC(=O)Nc2nc3nn(C)cc3c3nc(-c4ccco4)nn23)cc1.Cl [IL-10, N-1-(4-diethylamino-phenyl)-N′—S-[8-methyl-2-(2-furyl)-pyrazolo[4,3-e]1,2,4-triazolo[1,5-c]pyrimidine]-urea]
rA1/hA3 [1]: 21.5
rA2A/hA3 [1]: 19.4
